Results taken from ChEMBL document CHEMBL5150009, “Specific Inhibitor of Placental Alkaline Phosphatase Isolated from a DNA-Encoded Chemical Library Targets Tumor of the Female Reproductive Tract” (J Med Chem, 2021).
pIC50: −log10 of the molar value.

The chains behind the UniProt entries cited, without tags or fusion partners. Where a name states a change or a piece, a line headed by the entry shows the natural chain unless it says otherwise.
UniProt P05187: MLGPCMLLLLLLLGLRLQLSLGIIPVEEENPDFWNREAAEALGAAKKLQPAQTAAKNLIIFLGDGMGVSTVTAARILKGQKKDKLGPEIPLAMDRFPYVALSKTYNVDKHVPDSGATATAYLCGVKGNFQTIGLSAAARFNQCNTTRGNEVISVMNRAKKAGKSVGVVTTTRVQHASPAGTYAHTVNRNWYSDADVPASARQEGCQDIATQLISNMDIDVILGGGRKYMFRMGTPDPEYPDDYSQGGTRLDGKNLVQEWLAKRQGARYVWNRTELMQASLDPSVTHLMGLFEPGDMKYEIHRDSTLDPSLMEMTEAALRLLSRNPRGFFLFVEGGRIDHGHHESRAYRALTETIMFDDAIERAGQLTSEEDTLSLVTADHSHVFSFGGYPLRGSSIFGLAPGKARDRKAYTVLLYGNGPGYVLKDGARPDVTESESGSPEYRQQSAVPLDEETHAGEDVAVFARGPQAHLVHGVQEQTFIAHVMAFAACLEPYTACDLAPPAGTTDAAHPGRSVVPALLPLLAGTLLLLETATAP

Molecular target: Alkaline phosphatase, placental type (Homo sapiens, UniProt P05187)
Experiment: Inhibition of PLAP (unknown origin)

**Q.** How did the pIC50 turn out when Cc1nc2ccccc2n1CC(=O)c1ccc(O)c(O)c1 was run?
**A.** 5.60
